US4499286A, “Derivatives of thienylacetic acid amides and their pharmaceutically acceptable acid salts and a process for the preparation thereof” (dated 1985)

Test: hygroscopicity of the crystals
[1] = hydrochloride, compound free of crystal water

| SMILES | hygroscopicity (hydrochloride hemihydrate) | hygroscopicity [1] |
| --- | --- | --- |
| CN(C(=O)Cc1cc(Cl)c(Cl)s1)[C@@H]1CCCC[C@H]1N1CCCC1.Cl (relative stereo) | non-hygroscopic | hygroscopic |
| CN(C(=O)Cc1ccc(Cl)s1)[C@@H]1CCCC[C@H]1N1CCCC1.Cl (relative stereo) |  | non-hygroscopic |
| CN(C(=O)Cc1cc(Cl)sc1Cl)[C@@H]1CCCC[C@H]1N1CCCC1.Cl (relative stereo) |  | non-hygroscopic |
